{"sequences": {"note": "Protein sequences, listed by entry. Tags and fused reporters are not part of them.", "UniProt Q01970, whole entry, looked up": "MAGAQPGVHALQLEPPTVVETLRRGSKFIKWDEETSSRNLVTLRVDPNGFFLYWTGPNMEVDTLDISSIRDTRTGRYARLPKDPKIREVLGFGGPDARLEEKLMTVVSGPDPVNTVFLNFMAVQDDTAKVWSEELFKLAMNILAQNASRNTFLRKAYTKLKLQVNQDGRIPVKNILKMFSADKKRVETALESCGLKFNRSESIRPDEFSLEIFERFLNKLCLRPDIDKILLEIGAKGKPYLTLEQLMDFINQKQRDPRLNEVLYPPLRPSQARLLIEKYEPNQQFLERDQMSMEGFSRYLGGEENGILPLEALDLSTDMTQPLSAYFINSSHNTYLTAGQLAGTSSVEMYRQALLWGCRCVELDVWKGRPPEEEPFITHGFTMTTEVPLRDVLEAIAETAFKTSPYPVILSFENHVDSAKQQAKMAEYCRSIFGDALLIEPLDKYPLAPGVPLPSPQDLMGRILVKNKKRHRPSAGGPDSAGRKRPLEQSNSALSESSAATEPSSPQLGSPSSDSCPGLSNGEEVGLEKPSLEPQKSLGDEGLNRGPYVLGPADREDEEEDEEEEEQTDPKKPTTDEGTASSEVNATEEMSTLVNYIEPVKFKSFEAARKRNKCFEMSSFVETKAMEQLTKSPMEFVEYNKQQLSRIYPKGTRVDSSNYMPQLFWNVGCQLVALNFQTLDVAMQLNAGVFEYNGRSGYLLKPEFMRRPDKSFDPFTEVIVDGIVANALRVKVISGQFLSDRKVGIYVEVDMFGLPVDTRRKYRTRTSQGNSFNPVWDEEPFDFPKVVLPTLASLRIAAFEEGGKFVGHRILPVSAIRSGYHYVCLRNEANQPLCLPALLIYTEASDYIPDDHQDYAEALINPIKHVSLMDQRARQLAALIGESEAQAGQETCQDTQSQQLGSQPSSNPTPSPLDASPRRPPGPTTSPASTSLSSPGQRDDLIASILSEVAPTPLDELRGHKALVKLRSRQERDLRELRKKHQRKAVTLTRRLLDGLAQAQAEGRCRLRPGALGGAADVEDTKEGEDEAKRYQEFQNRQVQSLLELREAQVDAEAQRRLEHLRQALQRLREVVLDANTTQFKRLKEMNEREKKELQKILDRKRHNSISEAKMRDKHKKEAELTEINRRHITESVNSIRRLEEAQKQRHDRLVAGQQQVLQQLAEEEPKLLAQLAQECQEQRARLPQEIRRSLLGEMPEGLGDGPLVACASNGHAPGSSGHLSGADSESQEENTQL"}, "source": "PubChem BioAssay AID720704", "about": "(The Scripps Research Institute Molecular Screening Center, 2013)", "note": "Only a part is listed here, and it is no random draw. Activity calls are given as the source filed them. No stated cut-off is given here; in the data, active means inhibition above about 11%; inactive means the rest."}
{"biological_target": "1-phosphatidylinositol 4,5-bisphosphate phosphodiesterase beta-3 (Homo sapiens) (UniProt Q01970)", "test": "phospholipase C beta3 enzyme inhibition – biochemical, fluorescence, primary screen (AID 720704);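 further: 0% = median of compound wells on plate and 100% = full blocker control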", "settings": "Purified PLC-beta3, fluorogenic substrate, at 12.2 µM, stronger effect = higher value"}
{"smiles": "COc1ccc(N)c([N+](=O)[O-])c1[N+](=O)[O-]", "inhibition": "inactive: 2.4%"}
{"smiles": "O=C(OC1CN2CCC1CC2)c1cccc(Cl)c1", "note": "(configuration not stated)", "inhibition": "inactive: 7.01%"}
{"smiles": "Nc1ccc([As](=O)(O)c2ccc([N+](=O)[O-])cc2)cc1", "inhibition": "inactive: -6.61%"}
{"smiles": "C(Cc1nn[nH]n1)Cc1nn[nH]n1", "inhibition": "inactive: 1.85%"}
{"smiles": "C/C(N)=N\\P(=O)(OCc1ccccc1)OCc1ccccc1", "inhibition": "inactive: 5.51%"}
{"smiles": "O=[As](O)(c1ccccc1)c1ccc(O)cc1", "inhibition": "inactive: -1.99%"}
{"smiles": "O=[N+]([O-])c1ncn(CCn2cnc([N+](=O)[O-])n2)n1", "inhibition": "inactive: -6.42%"}
{"smiles": "CC(=O)NC(SC(=S)N(C)C)C(Cl)(Cl)Cl", "note": "(configuration not stated)", "inhibition": "inactive: -2.24%"}
{"smiles": "CN(C)C1(CNC(=O)c2ccc(S(C)(=O)=O)cc2)CCCCC1", "inhibition": "inactive: -4.72%"}
{"smiles": "CCCC1OP(=O)(Nc2ccccc2)OCC1CC", "note": "(configuration not stated)", "inhibition": "inactive: -3.3%"}
{"smiles": "O=C(/C=C/c1ccccc1)OC1CN2CCC1CC2", "note": "(configuration not stated)", "inhibition": "inactive: -3.15%"}
{"smiles": "CC1CCC(C(C)C)C(OP(=O)(Nc2ccccn2)c2ccccc2)C1", "note": "(configuration not stated)", "inhibition": "inactive: 2.77%"}
{"smiles": "Cc1ccc(C(=O)OC2CN3CCC2CC3)cc1", "note": "(configuration not stated)", "inhibition": "inactive: 3.58%"}
{"smiles": "Cc1nn(-c2ccccc2)c2c1P(=O)(N1CCOCC1)N(C)C(c1ccccc1)=N2", "note": "(configuration not stated)", "inhibition": "inactive: 8.55%"}
{"smiles": "Nc1cccc([As](=O)(O)c2ccccc2)c1", "inhibition": "inactive: -2.21%"}
{"smiles": "O=P1(Nc2ccc(Br)cn2)COc2ccccc2OC1", "inhibition": "inactive: 1.92%"}
{"smiles": "NS(=O)(=O)c1cccc(NC(=O)COC(=O)C(O)(c2ccccc2)c2ccccc2)c1", "inhibition": "inactive: -2.59%"}
{"smiles": "O=[As](O)(c1cccs1)c1cccs1", "inhibition": "inactive: -4.33%"}
{"smiles": "Cc1ccc(OCC(=O)OC2CN3CCC2CC3)cc1", "note": "(configuration not stated)", "inhibition": "inactive: 0.26%"}
{"smiles": "Cc1ccc(S(=O)(=O)N(CCCN)CCCc2c(C)nc(N)[nH]c2=O)cc1", "inhibition": "inactive: 2.92%"}
{"smiles": "O=P1(Nc2ncccn2)COc2ccccc2OC1", "inhibition": "inactive: 2.58%"}
{"smiles": "CC(C)(C)C(=O)NC(Sc1ncccn1)C(Cl)(Cl)Cl", "note": "(configuration not stated)", "inhibition": "inactive: -2.73%"}
{"smiles": "O=P1(N(CCCl)CCCl)NCCC(C(F)(F)F)O1", "note": "(configuration not stated)", "inhibition": "inactive: 0.45%"}
{"smiles": "Clc1n[nH]nc1-c1nn[nH][15n]1", "inhibition": "inactive: 3.34%"}
{"smiles": "CCOP(=O)(NC(=NC(C)c1ccccc1)NC(C)c1ccccc1)OCC", "note": "(configuration not stated)", "inhibition": "inactive: 1.25%"}
{"smiles": "O=P1(Nc2ccccn2)COc2ccccc2OC1", "inhibition": "inactive: 4.54%"}
{"smiles": "CCC1=CC2Cc3nc4ccc(Cl)cc4c(N)c3C(C1)C2", "note": "(configuration not stated)", "inhibition": "inactive: -17.3%"}
{"smiles": "CN(CCCl)Cc1cc(Cl)c(NC2=NCCN2)c(Cl)c1", "inhibition": "inactive: 3.64%"}
{"smiles": "CCOP(=O)(Nc1ccc(C)cn1)OCC", "inhibition": "inactive: -6.59%"}
{"smiles": "CN(C(=O)Cc1ccc(Cl)c(Cl)c1)C1CCCC[C@@H]1N1CCCC1", "note": "(some centres not stated)", "inhibition": "inactive: 5.19%"}
{"smiles": "CC(C)/C=N\\N=C(\\N)N[N+](=O)[O-]", "inhibition": "inactive: -3.85%"}
{"smiles": "CN(C(=O)Cc1ccc(Cl)c(Cl)c1)[C@@H]1CCCC[C@H]1N1CCCC1", "inhibition": "inactive: -0.9%"}
{"smiles": "CC1(CBr)Cn2c(nc3ccccc3c2=O)S1", "note": "(configuration not stated)", "inhibition": "inactive: 0.73%"}
{"smiles": "COc1ccccc1CNC(=O)COC(=O)C(O)(c1ccccc1)c1ccccc1", "inhibition": "inactive: 4.31%"}
{"smiles": "O=[As](O)(c1cccc(O)c1)c1cccc(O)c1", "inhibition": "inactive: -2.95%"}
{"smiles": "Cc1cccc(OCC(=O)OC2CN3CCC2CC3)c1", "note": "(configuration not stated)", "inhibition": "inactive: 0.4%"}
{"smiles": "O=C(OC1CN2CCC1CC2)c1ccc(Cl)cc1", "note": "(configuration not stated)", "inhibition": "inactive: -2.84%"}
{"smiles": "CS(=O)(=O)c1ccc(Cl)c(NC(=O)COC(=O)C(O)(c2ccccc2)c2ccccc2)c1", "inhibition": "inactive: -2.92%"}
{"smiles": "COc1cc(C(=O)NCC2(N3CCOCC3)CCCCC2)cc(Cl)c1OC(C)C", "inhibition": "inactive: 1.45%"}
{"smiles": "O=[As](O)(O)c1cccnc1", "inhibition": "inactive: -4.29%"}
{"smiles": "CCOP(=O)(Nc1cccc2ccccc12)OCC", "inhibition": "inactive: 2.26%"}
{"smiles": "COc1cc(C2NCCC3(OCCO3)C2(C)C)cc(OC)c1OC", "note": "(configuration not stated)", "inhibition": "inactive: -0.31%"}
{"smiles": "Nc1cccc2c([As](=O)(O)O)cccc12", "inhibition": "inactive: -212%"}
{"smiles": "Cc1ccc(NCCc2c([N+](=O)[O-])cc([N+](=O)[O-])cc2[N+](=O)[O-])cc1", "inhibition": "inactive: 1.51%"}
{"smiles": "CCCOP(=S)(Nc1nc(N)cc(=O)[nH]1)OCCC", "inhibition": "inactive: 0.69%"}
{"smiles": "Nc1ccccc1[As](=O)(O)c1ccccc1", "inhibition": "inactive: -1.58%"}
{"smiles": "O=C(O)COc1ccc([As](=O)(O)O)cc1[N+](=O)[O-]", "inhibition": "inactive: 0.61%"}
{"smiles": "O=P(Nc1nccs1)(Oc1ccccc1)Oc1ccccc1", "inhibition": "inactive: 0.33%"}
{"smiles": "CCOP1(=S)c2c(C)nn(CCC#N)c2N=C(c2ccccc2F)N1C", "note": "(configuration not stated)", "inhibition": "inactive: 4.24%"}
{"smiles": "CCOP1(=S)c2c(C)nn(CCC#N)c2N=C(c2ccc(F)cc2)N1C", "note": "(configuration not stated)", "inhibition": "inactive: -0.88%"}
{"smiles": "CN(C(=O)Cc1ccccc1)[C@@H]1CC[C@]2(CCCO2)C[C@H]1N1CCCC1", "inhibition": "inactive: 0.92%"}
{"smiles": "N#CCCN(C(=O)COC(=O)C(O)(c1ccccc1)c1ccccc1)c1ccc(F)cc1", "inhibition": "inactive: -6.35%"}
